Literature values, collected in patent publication US8946382B2, “Apelin peptides and methods of use” (The United States of America, as represented by the …, priority 2009, dated 2015).

Experiments:
APJ receptor = target: T1, APJ receptor (Homo sapiens, UniProt P35414); conditions: cited from earlier work
T1 sequence (P35414 1-380): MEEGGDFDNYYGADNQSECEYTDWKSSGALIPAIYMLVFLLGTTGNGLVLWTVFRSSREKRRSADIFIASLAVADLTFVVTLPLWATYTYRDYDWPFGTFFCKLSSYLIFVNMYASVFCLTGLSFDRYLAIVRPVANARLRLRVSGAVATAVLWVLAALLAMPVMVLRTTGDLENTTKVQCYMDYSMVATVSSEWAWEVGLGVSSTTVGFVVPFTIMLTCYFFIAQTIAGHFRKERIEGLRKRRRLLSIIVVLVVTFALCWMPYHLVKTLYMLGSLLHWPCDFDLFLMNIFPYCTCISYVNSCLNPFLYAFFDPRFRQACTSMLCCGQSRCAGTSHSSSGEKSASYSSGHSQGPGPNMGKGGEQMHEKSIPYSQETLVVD

[1] = target: T2, apelin G protein receptor (known as APJ) (Homo sapiens, UniProt P35414); conditions: Tatemoto et al. 1998; cited from earlier work
T2 sequence (P35414 1-380): T1 sequence (P35414 1-380)

Substance: apelin-36: 36 amino acid peptide, residues 42-77 of the apelin preproprotein (LVQPRGSRNGPGPWQGGRRKFRRQRPRLSHKGPMPF; homo sapiens)
- binding to the APJ receptor (APJ receptor): bind the APJ apelin receptor
- binding to the APJ receptor (APJ receptor; listed as Apelin-36 (42-77)): can bind the APJ receptor
- potency of peptide-induced acidification rates [1]: least potent

Where two headings read alike, the source gives them in different places.
